From US20230157952A1, “METHOD FOR IMPROVING THE STABILITY OF A PHARMACEUTICAL COMPOSITION COMPRISING A HIGH PENETRATION DRUG, AND THE PHARMACEUTICAL COMPOSITION OBTAINED THEREFROM” (Techfields Inc., priority 2020, published 2023)

What was measured:
Format in all cases: physicochemical
[1] = Effect of temperature (and pH) on the stability of the solution (purity)
Text: The results are illustrated in the following.

[2] = Stability of the pure HPDs (dry solid) at 25° C./RH 60%; conditions: for Purity: pure HPD, 25° C./RH 60%
[3] = Effect of pH value on the stability of the solution (purity)

## CCN(CC)CCOC(=O)[C@H](C)c1ccc(CC(C)C)cc1.Cl
[1]; pH 1.02, 7% solution in water
  Purity(%) at day 0: 97.8 ± 0.4%
[1]; pH 2.09, 7% solution in water
  Purity(%) at day 0: 98.0 ± 0.4%
[1]; pH 3.01, 7% solution in water
  Purity(%) at day 0: 98.1 ± 0.3%
  Purity(%) at day 21 (5° C.): 97.8 ± 0.4%
[1]; pH 3.68, 7% solution in water
  Purity(%) at day 0: 98.2 ± 0.2%
  Purity(%) at day 21 (5° C.): 98.1 ± 0.3%
  Purity(%) at day 21 (25° C.): 97.7 ± 0.3%
[1]; pH 4.07, 7% solution in water
  Purity(%) at day 0: 98.2 ± 0.3%
  Purity(%) at day 21 (5° C.): 98.0 ± 0.4%
  Purity(%) at day 21 (25° C.): 97.8 ± 0.4%
[1]; pH 4.35, 7% solution in water
  Purity(%) at day 0: 98.3 ± 0.2%
  Purity(%) at day 21 (5° C.): 98.1 ± 0.4%
  Purity(%) at day 21 (25° C.): 97.8 ± 0.3%
[1]; pH 4.67, 7% solution in water
  Purity(%) at day 0: 98.2 ± 0.3%
  Purity(%) at day 21 (5° C.): 98.1 ± 0.2%
[1]; pH 4.96, 7% solution in water
  Purity(%) at day 0: 98.1 ± 0.3%
[1]; pH 5.98, 7% solution in water
  Purity(%) at day 0: 98.0 ± 0.4%
[1]; pH 6.99, 7% solution in water
  Purity(%) at day 0: 97.9 ± 0.4%

## CCN(CC)CCOC(=O)C(C)c1ccc(-c2ccccc2)c(F)c1.Cl (racemic)
[1]; 7% solution in water, pH 1.0, day 0
  Purity(%) at day 0: 98.2 ± 0.3%
[1]; 7% solution in water, pH 2.0, day 0
  Purity(%) at day 0: 98.3 ± 0.3%
[1]; 7% solution in water, pH 2.0, day 21, 5° C.
  Purity(%) at day 21 (5° C.): 97.8 ± 0.2%
[1]; 7% solution in water, pH 3.0, day 0
  Purity(%) at day 0: 98.4 ± 0.2%
[1]; 7% solution in water, pH 3.0, day 21, 5° C.
  Purity(%) at day 21 (5° C.): 98.0 ± 0.2%
[1]; 7% solution in water, pH 3.7, day 0
  Purity(%) at day 0: 98.5 ± 0.3%
[1]; 7% solution in water, pH 3.7, day 21, 5° C.
  Purity(%) at day 21 (5° C.): 98.2 ± 0.1%
[1]; 7% solution in water, pH 4.0, day 0
  Purity(%) at day 0: 98.5 ± 0.2%
[1]; 7% solution in water, pH 4.0, day 21, 5° C.
  Purity(%) at day 21 (5° C.): 98.3 ± 0.1%
[1]; 7% solution in water, pH 4.0, day 21, 25° C.
  Purity(%) at day 21 (25° C.): 97.7 ± 0.2%
[1]; 7% solution in water, pH 4.3, day 0
  Purity(%) at day 0: 98.5 ± 0.3%
[1]; 7% solution in water, pH 4.3, day 21, 5° C.
  Purity(%) at day 21 (5° C.): 98.3 ± 0.1%
[1]; 7% solution in water, pH 4.3, day 21, 25° C.
  Purity(%) at day 21 (25° C.): 97.8 ± 0.1%
[1]; 7% solution in water, pH 4.6, day 0
  Purity(%) at day 0: 98.4 ± 0.2%
[1]; 7% solution in water, pH 4.6, day 21, 5° C.
  Purity(%) at day 21 (5° C.): 98.3 ± 0.1%
[1]; 7% solution in water, pH 4.6, day 21, 25° C.
  Purity(%) at day 21 (25° C.): 97.7 ± 0.1%
[1]; 7% solution in water, pH 5.0, day 0
  Purity(%) at day 0: 98.5 ± 0.3%
[1]; 7% solution in water, pH 6.0, day 0
  Purity(%) at day 0: 98.3 ± 0.3%
[1]; 7% solution in water, pH 7.0, day 0
  Purity(%) at day 0: 98.1 ± 0.4%
[1]; 7% solution in water, pH 8.0, day 0
  Purity(%) at day 0: 98.0 ± 0.4%

## CCN(CC)CCOC(=O)C(C)c1ccc(CC(C)C)cc1.Cl (racemic)
[1]; pH 1.02, 7% solution in water
  Purity(%) at day 0: 98.0 ± 0.4%
[1]; pH 2.09, 7% solution in water
  Purity(%) at day 0: 98.2 ± 0.4%
[1]; pH 3.00, 7% solution in water
  Purity(%) at day 0: 98.5 ± 0.3%
  Purity(%) at day 21 (5° C.): 98.0 ± 0.4%
[1]; pH 3.68, 7% solution in water
  Purity(%) at day 0: 98.5 ± 0.2%
  Purity(%) at day 21 (5° C.): 98.4 ± 0.3%
  Purity(%) at day 21 (25° C.): 98.1 ± 0.4%
[1]; pH 4.07, 7% solution in water
  Purity(%) at day 0: 98.6 ± 0.3%
  Purity(%) at day 21 (5° C.): 98.5 ± 0.3%
  Purity(%) at day 21 (25° C.): 98.2 ± 0.2%
[1]; pH 4.35, 7% solution in water
  Purity(%) at day 0: 98.6 ± 0.2%
  Purity(%) at day 21 (5° C.): 98.6 ± 0.4%
  Purity(%) at day 21 (25° C.): 98.2 ± 0.3%
[1]; pH 4.67, 7% solution in water
  Purity(%) at day 0: 98.5 ± 0.1%
  Purity(%) at day 21 (5° C.): 98.5 ± 0.4%
  Purity(%) at day 21 (25° C.): 98.1 ± 0.4%
[1]; pH 4.95, 7% solution in water
  Purity(%) at day 0: 98.5 ± 0.3%
[1]; pH 5.98, 7% solution in water
  Purity(%) at day 0: 98.4 ± 0.3%
[1]; pH 6.98, 7% solution in water
  Purity(%) at day 0: 98.3 ± 0.4%
[1]; pH 8.01, 7% solution in water
  Purity(%) at day 0: 98.0 ± 0.4%

## CCN(CC)CCOC(=O)[C@H](C)c1ccc2cc(OC)ccc2c1.Cl (racemic)
[1]; pH 1.02, 7% solution in water
  Purity(%) at day 0: 98.6 ± 0.2%
[1]; pH 2.09, 7% solution in water
  Purity(%) at day 0: 98.6 ± 0.3%
  Purity(%) at day 21 (5° C.): 98.1 ± 0.2%
[1]; pH 3.00, 7% solution in water
  Purity(%) at day 0: 98.7 ± 0.2%
  Purity(%) at day 21 (5° C.): 98.4 ± 0.2%
[1]; pH 3.68, 7% solution in water
  Purity(%) at day 0: 98.8 ± 0.3%
  Purity(%) at day 21 (5° C.): 98.6 ± 0.1%
  Purity(%) at day 21 (25° C.): 98.0 ± 0.1%
[1]; pH 4.07, 7% solution in water
  Purity(%) at day 0: 98.7 ± 0.4%
  Purity(%) at day 21 (5° C.): 98.7 ± 0.1%
  Purity(%) at day 21 (25° C.): 98.3 ± 0.2%
[1]; pH 4.35, 7% solution in water
  Purity(%) at day 0: 98.8 ± 0.3%
  Purity(%) at day 21 (5° C.): 98.7 ± 0.1%
  Purity(%) at day 21 (25° C.): 98.2 ± 0.1%
[1]; pH 4.67, 7% solution in water
  Purity(%) at day 0: 98.8 ± 0.3%
  Purity(%) at day 21 (5° C.): 98.7 ± 0.1%
  Purity(%) at day 21 (25° C.): 98.2 ± 0.2%
[1]; pH 4.95, 7% solution in water
  Purity(%) at day 0: 98.7 ± 0.2%
  Purity(%) at day 21 (5° C.): 97.9 ± 0.2%
[1]; pH 5.98, 7% solution in water
  Purity(%) at day 0: 98.8 ± 0.3%
[1]; pH 8.01, 7% solution in water
  Purity(%) at day 0: 98.3 ± 0.3%

## CCN(CC)CCOC(=O)[C@H](C)c1ccc2cc(OC)ccc2c1.Cl (racemic) [A-1-3, 2-(diethylamino)ethyl (R)-2-(6-methoxy-2-naphthyl) propionate•HCl salt]
[2]; 3 month
  Purity: 98.4 ± 0.2
[2]; 6 month
  Purity: 98.5 ± 0.2
[2]; 12 month
  Purity: 98.2 ± 0.1
[2]; Day 0
  Purity: 98.5 ± 0.2

## Br.CCN(CC)CCOC(=O)[C@H](C)c1ccc(CC(C)C)cc1 (racemic) [C-1-4, 2-(diethylamino)ethyl (R,S)-2-(p-isobutylphenyl)propionate•HBr salt]
[2]; 3 month
  Purity: 98.4 ± 0.1
[2]; 6 month
  Purity: 98.5 ± 0.3
[2]; 9 month
  Purity: 98.3 ± 0.1
[2]; 12 month
  Purity: 98.3 ± 0.3
[2]; 18 month
  Purity: 98.2 ± 0.4
[2]; Day 0
  Purity: 98.5 ± 0.2

## CCN(CC)CCOC(=O)[C@@H](C)c1ccc2cc(OC)ccc2c1.Cl [A-1-2, 2-(diethylamino)ethyl (S)-2-(6-methoxy-2-naphthyl) propionate•HCl salt]
[2]; 3 month
  Purity: 98.5 ± 0.3
[2]; 6 month
  Purity: 98.4 ± 0.2
[2]; 12 month
  Purity: 98.3 ± 0.2
[2]; 18 month
  Purity: 98.2 ± 0.2

## CCN(CC)CCOC(=O)C(C)c1ccc(-c2ccccc2)c(F)c1.Cl (centres unmarked) [B-1-1, 2-(diethylamino)ethyl 2-(2-fluoro-4-biphenyl)propionate•HCl salt]
[2]; 3 month
  Purity: 98.4 ± 0.1
[2]; 12 month
  Purity: 98.2 ± 0.1
[2]; Day 0
  Purity: 98.5 ± 0.2

## CCN(CC)CCOC(=O)[C@@H](C)c1ccc(-c2ccccc2)c(F)c1.Cl [B-1-2, 2-(diethylamino)ethyl (S)-2-(2-fluoro-4-biphenyl)propionate•HCl salt]
[2]; 6 month
  Purity: 98.5 ± 0.2
[2]; 12 month
  Purity: 98.4 ± 0.2
[2]; 18 month
  Purity: 98.3 ± 0.1
[2]; 24 month
  Purity: 98.2 ± 0.1

## CCN(CC)CCOC(=O)[C@H](C)c1ccc(-c2ccccc2)c(F)c1.Cl [B-1-3, 2-(diethylamino)ethyl (R)-2-(2-fluoro-4-biphenyl)propionate•HCl salt]
[2]; 3 month
  Purity: 98.3 ± 0.1
[2]; 6 month
  Purity: 98.3 ± 0.1
[2]; 12 month
  Purity: 98.2 ± 0.1
[2]; Day 0
  Purity: 98.4 ± 0.1

## Br.CCN(CC)CCOC(=O)C(C)c1ccc(-c2ccccc2)c(F)c1 (centres unmarked) [B-1-4, 2-(diethylamino)ethyl 2-(2-fluoro-4-biphenyl)propionate•HBr salt]
[2]; 3 month
  Purity: 98.5 ± 0.1
[2]; 6 month
  Purity: 98.4 ± 0.1
[2]; 12 month
  Purity: 98.3 ± 0.1

## CCN(CC)CCOC(=O)[C@@H](C)c1ccc(CC(C)C)cc1.Cl [C-1-2, 2-(diethylamino)ethyl (S)-2-(p-isobutylphenyl)propionate•HCl salt]
[2]; 3 month
  Purity: 98.5 ± 0.3
[2]; 6 month
  Purity: 98.4 ± 0.4
[2]; 9 month
  Purity: 98.5 ± 0.3
[2]; 12 month
  Purity: 98.3 ± 0.4
[2]; 18 month
  Purity: 98.2 ± 0.1
[2]; Day 0
  Purity: 98.5 ± 0.1

## CCN(CC)CCOC(=O)[C@H](C)c1ccc(CC(C)C)cc1.Cl [C-1-3, 2-(diethylamino)ethyl (R)-2-(p-isobutylphenyl)propionate•HCl salt]
[2]; 3 month
  Purity: 98.2 ± 0.2
[2]; Day 0
  Purity: 98.2 ± 0.1

## H-Tyr-Gly-Gly-Phe-Leu-OCH2CH3.HCl
[3]; 5% solution in 25% ethanol at 25° C.
  pH at which the solution is stable: 3-6
[3]; 5% solution in 25% ethanol, pH 3-6
  Time the solution can be stored at room temperature: about 3 months

## H-Tyr-Gly-Gly-Phe-Leu-OCH(CH3)2.HCl [U-1]
[2]; 3 month
  Purity: 98.5 ± 0.2
[2]; 6 month
  Purity: 98.4 ± 0.2
[2]; 9 month
  Purity: 98.3 ± 0.2
[2]; 12 month
  Purity: 98.2 ± 0.3
[2]; 18 month
  Purity: 98.2 ± 0.3
[2]; 24 month
  Purity: 98.0 ± 0.2
[2]; Day 0
  Purity: 98.5 ± 0.2
[2]; room temperature (25° C./RH 60%)
  Stability of the pure powder: very stable
